These results are taken from patent US4801604A (priority 1987, dated 1989).

The assay relates to CF-1 mice. Briefly: Maximal transpinal electroshock anti-convulsant test (absence of tonic extensor convulsion). Conditions: Example 7 Table 2, subcutaneous, 10 mA, 0.2 sec.

The structures appear in SMILES notation. This is a selection: effects in other tests are not listed, and their absence says nothing.

For the molecule `O=C(N[C@@H]1CCCC[C@@H]1N1CCCC1)c1ccc(Cl)c(Cl)c1` (relative stereo), the “Electro-Convulsive Shock Antagonism ED50” value is 18 mg/kg.
